Test results as given in US20210364527A1, “Methods and compositions for protein sequencing” (QUANTUM SI, published 2021).

B1: PS610 (Bis-atClpS2-V1, Linker 2) (designed binder)
chain: MSDSPVDLKPKPKVKPKLERPKLYKVMLLNDDYTPMSFVTVVLKAVFRMSEDTGRRVMMTAHRFGSAVVVVCERDIAETKAKEATDLGKEAGFPLMFTTEPEEGSAGSAAGSGEFMSDSPVDLKPKPKVKPKLERPKLYKVMLLNDDYTPMSFVTVVLKAVFRMSEDTGRRVMMTAHRFGSAVVVVCERDIAETKAKEATDLGKEAGFPLMFTTEPEEGHHHHHHHHHHGGGSGGGSGGGSGLNDFFEAQKIEWHEGGGSGGGSGGGSGLNDFFEAQKIEWHE
B2: Agrobacterium tumifaciens ClpS2 variant 1 (atClpS2-V1) (designed binder)
chain: MSDSPVDLKPKPKVKPKLERPKLYKVMLLNDDYTPMSFVTVVLKAVFRMSEDTGRRVMMTAHRFGSAVVVVCERDIAETKAKEATDLGKEAGFPLMFTTEPEE

Experiments:
[1] = biological target: T1, FA peptide (N-terminal phenylalanine, penultimate alanine; rest of sequence not given); assay: fluorescence polarization
T1 construct: they may differ; Dye- or FITC-labelled in some assays; also called phenylalanine peptide; N-terminal FA peptide

[2] = biological target: T2, peptide having an N-terminal (unmodified) tyrosine residue (rest of sequence not given); assay: single-molecule pulse analysis, ATTO 532-labeled ClpS2
T2 construct: these may be different peptides

[3] = biological target: T3, peptide having an N-terminal tryptophan residue (rest of sequence not given); assay: as above
[4] = biological target: T4, peptide having an N-terminal phenylalanine residue (rest of sequence not given); assay: as above
[5] = biological target: T2, peptide having an N-terminal …; assay: single-molecule pulse analysis, ATTO 532-labeled ClpS2; histogram A
[6] = biological target: T3, peptide having an N-terminal tryptophan …; assay: as above
[7] = biological target: T4, peptide having an N-terminal …; assay: as above
[8] = biological target: T2, peptide having an N-terminal …; assay: single-molecule pulse analysis, ATTO 532-labeled ClpS2; histogram B
[9] = biological target: T3, peptide having an N-terminal tryptophan …; assay: as above
[10] = biological target: T4, peptide having an N-terminal …; assay: as above
[11] = biological target: T5, WA peptide (N-terminal tryptophan, penultimate alanine; rest of sequence not given); assay: binding polarization assay, ensemble measurement
T5 construct: they may differ; also called tryptophan peptide

[12] = biological target: T6, YA peptide (N-terminal tyrosine, penultimate alanine; rest of sequence not given); assay: binding polarization assay, ensemble measurement
T6 construct: they may differ; also called tyrosine peptide

[13] = biological target: T1, FA peptide (N-terminal phenylalanine, …); assay: binding polarization assay, ensemble measurement
[14] = biological target: T7, FITC-labeled YA peptide YAKLDEESILKQK-FITC (C-terminal FITC); assay: fluorescence polarization, FITC-peptide with ClpS:streptavidin complex, 23 C
T7 peptide: YAKLDEESILKQK

[15] = biological target: T8, FITC-labeled FA peptide FAKLDEESILKQK-FITC (C-terminal FITC); assay: as above
T8 peptide: FAKLDEESILKQK

[16] = biological target: T9, FITC-labeled WA peptide WAKLDEESILKQK-FITC (C-terminal FITC); assay: as above
T9 peptide: WAKLDEESILKQK

[17] = biological target: T1, FA peptide (N-terminal phenylalanine, …); assay: stopped-flow, complex mixed with excess unlabelled trap peptide
[18] = biological target: T2, peptide having an N-terminal …; assay: single-molecule pulse analysis, ATTO 532-labeled ClpS2; remark: listed apart in the source
[19] = biological target: T3, peptide having an N-terminal tryptophan …; assay: as above; remark: listed apart in the source
[20] = biological target: T4, peptide having an N-terminal …; assay: as above; remark: listed apart in the source

Binder	Kd [1] [nM]	mean inter-pulse duration (u) [2] [s]	mean inter-pulse duration (u) [3] [s]	mean inter-pulse duration (u) [4] [s]	mean pulse duration (u) [5] [s]	mean pulse duration (u) [6] [s]	mean pulse duration (u) [7] [s]	mean pulse duration (u), as the axis of panel B is labelled [8] [s]	mean pulse duration (u), as the axis of panel B is labelled [9] [s]	mean pulse duration (u), as the axis of panel B is labelled [10] [s]	Kd [11] [nM]	Kd [12] [nM]	Kd [13] [nM]	binding result [14]	binding result [15]	binding result [16]	koff [17] [s⁻¹]	mean pulse duration (u) [18] [s]	mean pulse duration (u) [19] [s]	mean pulse duration (u) [20] [s]
B1	271																			
B2	185	3.73	3.94	3	0.09	0.06	0.15	0.06	0.04	0.09	3510	2050	743	binds	binds	binds	1.19	0.09	0.06	0.14
